Measured values reported in ChEMBL document CHEMBL4420080, “Inhibitors of sox18 protein activity for treating angiogenesis- and/or lymphangiogenesis-related diseases” (2018).

Key:
[1] = biological target: T1, Transcription factor SOX-18 (Homo sapiens) (UniProt P35713); test: Inhibition of SOX18 in HUVEC assessed as reduction of SOX18-OCT4 interactions incubated for 45 mins by Alpha-screen assay
T1 sequence (whole entry): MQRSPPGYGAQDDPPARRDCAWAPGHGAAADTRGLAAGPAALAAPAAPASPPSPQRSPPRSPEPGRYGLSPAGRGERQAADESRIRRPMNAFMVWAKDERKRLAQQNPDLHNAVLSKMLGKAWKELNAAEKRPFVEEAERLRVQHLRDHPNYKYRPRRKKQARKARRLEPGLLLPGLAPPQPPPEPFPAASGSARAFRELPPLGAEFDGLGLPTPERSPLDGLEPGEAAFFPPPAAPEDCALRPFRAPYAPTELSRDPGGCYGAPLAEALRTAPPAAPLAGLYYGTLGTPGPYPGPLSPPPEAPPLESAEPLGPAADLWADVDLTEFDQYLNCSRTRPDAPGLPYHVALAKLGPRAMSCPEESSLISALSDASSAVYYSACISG

[2] = biological target: T1, Transcription factor SOX-18 (Homo sapiens); test: Inhibition of SOX18 in HUVEC assessed as reduction of SOX18 transcriptional activity by genome-wide RNA-seq and ChlP-seq analysis

inhibition [1]: Active
inhibition [2]: Active
SMILES: O=C(O)c1c(O)cccc1CCc1ccc2ccccc2c1

Calls of active or inactive are those of the source. The calls are words filed in the database; no cut-off is given here.
